This passage reports percent of control (FP) results from PubChem BioAssay AID1224905 (ICCB-Longwood Screening Facility, Harvard Medical School, 2016).

Amino acid sequences for entries named in this document (tags omitted).
UniProt P08753, whole entry, looked up: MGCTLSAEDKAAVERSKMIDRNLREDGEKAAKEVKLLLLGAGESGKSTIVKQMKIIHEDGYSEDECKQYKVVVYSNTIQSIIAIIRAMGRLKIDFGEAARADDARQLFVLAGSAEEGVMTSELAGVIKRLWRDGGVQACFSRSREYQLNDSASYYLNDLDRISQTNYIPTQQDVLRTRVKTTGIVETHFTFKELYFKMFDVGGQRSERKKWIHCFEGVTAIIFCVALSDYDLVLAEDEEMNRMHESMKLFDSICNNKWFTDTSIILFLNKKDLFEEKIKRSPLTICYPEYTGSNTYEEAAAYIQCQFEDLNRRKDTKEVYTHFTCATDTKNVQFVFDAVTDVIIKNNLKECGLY

SMILES strings stand for the structures. Among all 210,000 compounds or so, about 880 (0.42%) were called active.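 The calls were made as follows: active = replicate mean at 85% of control or lower with very high polarization wells dropped (limit read from the data); inactive = the rest.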 Many of the other results were omitted from the sample, so actives are more common in it than they were.

The target in the assay is Guanine nucleotide-binding protein G(i) subunit alpha-3 (Rattus norvegicus) (UniProt P08753). Description: inhibitors of GIV peptide binding to Galpha-i3, primary screen, biochemical, fluorescence polarization, FITC-GIV GBA peptide, rat Galphai3 (AID 1224905). The following applies: 90 min, hits give low values, scaled: aluminum fluoride 0%, vehicle 100%. For orientation: In fluorescence polarisation assays a small probe gives low polarisation when free and higher when bound to something large.
Consider `O=C(CSc1nnc2ccc(C(=O)NCc3ccccc3)cn12)Nc1ccccc1Br`, for which the percent of control (FP) is 95.4% (inactive). Consider `CC(=O)Nc1cccc(NC(=O)c2sc3ncn(CC(=O)Nc4ccc(C)c(Cl)c4)c(=O)c3c2C)c1`, for which the percent of control (FP) is 107% (inactive). `CC1(C)CC(=O)C2=C(C1)OC1=C(C(=O)CC(C)(C)C1)C2c1ccc(Cl)cc1`: the percent of control (FP) was 107% (inactive). The result for `Cn1cc(S(=O)(=O)N2CCCCC2)cc1C(=O)N1CCc2ccccc2C1` reads 107% (inactive). For `COC(=O)c1ccc(C2C(S(=O)(=O)c3ccccc3)=C(O)C(=O)N2c2cccc(C)c2)cc1` (stereo not drawn) the value was 101% (inactive).

Turning to `CCCCN1C(=O)C(C)(C(=O)N2CCN(C)CC2)Oc2cccnc21` (stereo not drawn), the percent of control (FP) was 101% (inactive). For `O=C(CCN1CCOCC1)Nc1cc(C(=O)Nc2ccc(F)c(F)c2)ccc1N1CC2CC(C1)c1cccc(=O)n1C2` (stereo not drawn) the value was 115% (inactive); for `CCCCN(C)C(=O)CCn1c(=S)[nH]c2c(oc3ccccc32)c1=O`, 100% (inactive). On to `COC(=O)c1c(C)c(=O)[nH]c2ccccc12`, for which the percent of control (FP) is 102% (inactive).

Consider `O=C(O)c1c2ccccc2[nH]c2c1oc1cc(=O)ccc12`, for which the percent of control (FP) is 81.8% (active). The result for `CCn1cc(CCN2CCN(S(=O)(=O)c3ccc4c(c3)CCC4)CC2)c2cccnc21` reads 108% (inactive); that for `CCN(Cc1ccccc1)C(=O)Cn1c(=O)n(CCc2ccccc2)c(=O)c2ccccc21`, 102% (inactive); that for `O=S(=O)(c1cc(-c2noc(C3CC3)n2)cs1)N1CCN(c2ccc(Cl)cc2)CC1`, 104% (inactive). For `CCOc1ccc(NC(=O)Nc2ccc(Cn3cnc(-c4nc(-c5ccc(Cl)cc5)no4)c3)cc2)cc1` the value was 102% (inactive).

For the molecule `COC(=O)Cn1nc2c(-c3nc(-c4ccc(Cl)cc4)no3)cccn2c1=O`, the percent of control (FP) was 53.6% (active). `C=CCNc1ncccc1-c1nc(-c2ccc(Cl)cc2)no1`: the percent of control (FP) was 96.7% (inactive). As for `CCCCN(CC)C(=O)c1c[nH]c2ccc(S(=O)(=O)N(C)c3ccc(Br)cc3)cc2c1=O`, the percent of control (FP) was 97.2% (inactive). For `O=C1Nc2ccccc2O/C1=C\c1ccc(C(=O)NCc2ccco2)cc1` the value was 103% (inactive); for `CCOc1ccc(NC(=O)Nc2cccc(OCc3cc(=O)n4ccccc4n3)c2)cc1`, 100% (inactive). For `Cn1c(SCC(N)=O)nnc1-c1cc2ccccc2o1`, the percent of control (FP) was 98.6% (inactive).

Regarding `COc1ccc2oc(=O)cc(-c3cc4ccccc4o3)c2c1`, the percent of control (FP) was 104% (inactive).

For the molecule `O=c1c(-c2cc3ccccc3o2)[n+]([O-])c2ccccc2n1O`, the percent of control (FP) is 9.86% (active). For `Cc1ccc([N+](=O)[O-])cc1S(=O)(=O)n1c(SCc2ccccc2F)nc2ccccc21` the value was 104% (inactive); for `COc1ccc(N=Nc2c(-c3ccc(OC)cc3)[nH]oc2=O)cc1`, 49% (active); for `COc1ccc(-c2ocnc2C(=O)O)cc1`, 108% (inactive).

`COc1cccc(N=Nc2c(O)[nH]c(=O)[nH]c2=O)c1`: the percent of control (FP) is 100% (inactive).

For the molecule `Cc1ccc(-c2nnc3ccccc3c2C(=O)Nc2ccc3c(c2)OCCO3)cc1`, the percent of control (FP) was 101% (inactive). On to `COC(=O)/C=C1\Nc2ccccc2SC1=O`, for which the percent of control (FP) is 103% (inactive). For `O=C1c2ccccc2S(=O)(=O)N1CC(O)COc1ccc2ccccc2c1` (stereo not drawn), the percent of control (FP) is 103% (inactive).

As to `C/C(=N\c1nc2ccccc2n1C)c1cc(Cl)ccc1O`, the percent of control (FP) is 49.3% (active). For `Cn1c(=O)c(C(=O)NCCc2ccc(Cl)cc2)nc2ccccc21` the value was 105% (inactive); for `Cn1c(NC(=O)c2ccccc2)nc2ccccc21`, 97.8% (inactive); for `Cn1cc(C(=O)Nc2ccc(Br)cc2)c2[nH]c(=O)n(-c3ccccc3)c(=O)c21`, 101% (inactive). `COc1ccc(NC(=O)c2nn(C)c3c2CSc2ccc(Cl)cc2-3)cc1OC`: the percent of control (FP) is 102% (inactive). For `COc1ccc(NC(=O)C2CCN(S(=O)(=O)c3cc4c(cc3C)NC(=O)CO4)CC2)cc1OC`, the percent of control (FP) was 98% (inactive). For `O=S(=O)(c1ccccc1Cl)N1CCN(c2ncnc3c2nnn3-c2ccc(F)cc2)CC1` the value was 98.7% (inactive); for `Cc1cc(C)c2c(n1)sc1c(=O)n(C)cnc12`, 103% (inactive). The result for `COc1ccc(-c2cc(-c3nc4c5sc6nc(C)cc(C)c6c5ncn4n3)[nH]n2)cc1` reads 102% (inactive); that for `Cc1cc(C)c2c(N)c(-c3n[nH]c(=S)n3C)sc2n1`, -53.5% (active).

`Cc1ccc(N2C(=O)C3C4c5ccccc5C(C=O)(c5ccccc54)C3C2=O)c(Br)c1` (stereo not drawn): the percent of control (FP) is 123% (inactive). The result for `COCCNC(=O)c1ccccc1NC(=O)c1ccc(F)cc1` reads 104% (inactive); that for `COC(=O)CN1C(c2ccccc2)=Nc2ccc(Br)cc2C1c1ccccc1` (stereo not drawn), 107% (inactive); that for `COc1ccc(CNS(=O)(=O)c2ccc(F)c(C(=O)Nc3ccc(Br)cc3F)c2)cc1`, 111% (inactive). Turning to `Cc1nn(CC(=O)NCCc2c[nH]c3ccccc23)c(=O)c2noc(C)c12`, the percent of control (FP) was 98.7% (inactive).

Turning to `N#C/C(=C/c1ccc(N2CCCCC2)o1)C(=O)NCCc1c[nH]c2ccccc12`, the percent of control (FP) is -90.3% (active). Take `O=C(NCCc1c[nH]c2ccccc12)c1cc(=O)nc2sc(N3CCCC3)nn12`: the percent of control (FP) was 106% (inactive). The result for `CCCCN(CC)c1ncnc2ccc(C)cc12` reads 101% (inactive). The result for `Cc1ccc2nc(/C(C#N)=C/c3ccccc3F)[nH]c2c1` reads 113% (inactive); that for `Cc1ccc2nc(/C(C#N)=C/c3ccc(-c4ccc(C(=O)OC(C)C)cc4)o3)[nH]c2c1`, -57.6% (active); that for `N#CC(C#N)=Cc1ccc(-c2cccc(C(=O)O)c2)o1`, 102% (inactive).

For `O=C(OCCN1CCCCC1)C1COc2ccccc2O1` (stereo not drawn), the percent of control (FP) was 102% (inactive). The result for `CN(Cc1ccccc1)S(=O)(=O)c1ccc2c3c(cccc13)C(=O)N2` reads 104% (inactive); that for `Nc1ccc2c3c(cccc13)C(=O)NC2=O`, -7.99% (active). On to `CC1CN(S(=O)(=O)c2ccc3c4c(cccc24)C(=O)N3)CC(C)O1` (stereo not drawn), for which the percent of control (FP) is 96.8% (inactive). For `C#CCSc1c(CCCC)cnc2c1c(=O)n(C)c(=O)n2C` the value was 106% (inactive); for `COC(CNC(=O)c1cn(C)c2ccc(S(=O)(=O)N3CCCC3)cc2c1=O)OC`, 106% (inactive); for `CCOc1ccc(/C(O)=C2/C(=O)C(=O)N(CCN3CCOCC3)C23C(=O)N(C)c2ccccc23)cc1` (stereo not drawn), 107% (inactive). For `Cc1cc(Br)ccc1NC(=O)Cn1c2ccccc2c(=O)c2ccccc21` the value was 99.8% (inactive); for `CCN1C(=O)c2cccc3c(S(=O)(=O)N4CCc5ccccc54)ccc1c23`, 101% (inactive); for `CCN1C(=O)c2cccc3c(NC(=S)NC(=O)c4ccccc4)ccc1c23`, -23.8% (active). For `CCN1C(=O)c2cccc3c(S(=O)(=O)N4CCN(CCO)CC4)ccc1c23` the value was 108% (inactive). Consider `Cc1cc(C)n(C(=O)c2sccc2S(=O)(=O)N(C)c2ccc(C)c(Cl)c2)n1`, for which the percent of control (FP) was 95.4% (inactive). For `O=C(NCC(c1ccccc1Cl)N1CCCC1)c1cc(-c2ccccc2)on1` (stereo not drawn) the value was 113% (inactive).
